Molecular target: C-Raf FL (full-length C-Raf with Y340E and Y341E activating mutations) (Homo sapiens (Human), UniProt P04049, Y340E/Y341E)
Assay type: biochemical
Details: full-length c-Raf 4 pM, ATP 3 uM, 10 nM biotinylated MEK1 kinase dead

By UniProt entry, the sequences of proteins in these tests, tags left out.
UniProt P04049, whole entry Y340E/Y341E: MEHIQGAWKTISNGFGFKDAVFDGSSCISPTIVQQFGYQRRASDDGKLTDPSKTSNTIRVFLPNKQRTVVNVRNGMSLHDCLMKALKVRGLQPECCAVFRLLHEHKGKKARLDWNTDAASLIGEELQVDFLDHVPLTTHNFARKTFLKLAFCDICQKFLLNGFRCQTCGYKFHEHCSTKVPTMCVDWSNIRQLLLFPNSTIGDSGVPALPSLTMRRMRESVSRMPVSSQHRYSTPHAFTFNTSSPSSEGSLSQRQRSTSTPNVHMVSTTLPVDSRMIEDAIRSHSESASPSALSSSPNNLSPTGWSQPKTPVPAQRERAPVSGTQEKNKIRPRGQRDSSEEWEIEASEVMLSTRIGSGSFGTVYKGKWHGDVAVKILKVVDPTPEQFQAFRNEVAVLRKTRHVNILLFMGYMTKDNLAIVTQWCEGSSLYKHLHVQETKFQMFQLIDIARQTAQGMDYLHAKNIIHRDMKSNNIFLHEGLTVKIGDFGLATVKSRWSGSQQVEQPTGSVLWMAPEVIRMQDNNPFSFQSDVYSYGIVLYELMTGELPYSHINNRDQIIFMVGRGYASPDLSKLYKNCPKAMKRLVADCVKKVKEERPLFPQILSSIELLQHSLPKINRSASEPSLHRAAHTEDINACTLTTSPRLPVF

IC50 [nM] | SMILES
0.436 | Cc1ccc(C(=O)Nc2cccc(C(F)(F)F)c2)cc1-c1ccnc(N2CCOCC2)c1 [Example 63, 4-Methyl-3-(2-morpholinopyridin-4-yl)-N-(3-(trifluoromethyl)phenyl)benzamide]
0.187 | Cc1ccc(NC(=O)c2cccc(C(F)(F)F)c2)cc1-c1cc(N2CCOCC2)nc(N2CCOCC2)c1 [Example 65, N-(3-(2,6-dimorpholinopyridin-4-yl)-4-methylphenyl)-3-(trifluoromethyl)benzamide]
77.9 | Cc1ccc(NC(=O)c2cccnn2)cc1-c1ccnc(N2CCOCC2)c1 [Example 67, N-(4-methyl-3-(2-morpholinopyridin-4-yl)phenyl)pyridazine-3-carboxamide]
0.124 | Cc1ccc(NC(=O)c2cccc(S(C)(=O)=O)c2)cc1-c1ccnc(N2CCOCC2)c1 [Example 68, N-(4-methyl-3-(2-morpholinopyridin-4-yl)phenyl)-3-(methylsulfonyl)benzamide]
0.396 | Cc1ccc(NC(=O)c2ccnc(C(C)(C)C)c2)cc1-c1ccnc(N2CCOCC2)c1 [Example 69, 2-(tert-butyl)-N-(4-methyl-3-(2-morpholinopyridin-4-yl)phenyl)isonicotinamide]
24 | Cc1ccc(NC(=O)c2cnccn2)cc1-c1ccnc(N2CCOCC2)c1 [Example 70, N-(4-methyl-3-(2-morpholinopyridin-4-yl)phenyl)pyrazine-2-carboxamide]
83.3 | Cc1ccc(NC(=O)c2cncnc2)cc1-c1ccnc(N2CCOCC2)c1 [Example 71, N-(4-methyl-3-(2-morpholinopyridin-4-yl)phenyl)pyrimidine-5-carboxamide]
78 | Cc1ccc(NC(=O)c2ccnnc2)cc1-c1ccnc(N2CCOCC2)c1 [Example 72, N-(4-methyl-3-(2-morpholinopyridin-4-yl)phenyl)pyridazine-4-carboxamide]
0.25 | Cc1ccc(NC(=O)c2ccnc(S(C)(=O)=O)c2)cc1-c1ccnc(N2CCOCC2)c1 [Example 73, N-(4-methyl-3-(2-morpholinopyridin-4-yl)phenyl)-2-(methylsulfonyl)isonicotinamide]
0.056 | Cc1ccc(NC(=O)c2cccc(C(F)F)c2)cc1-c1ccnc(N2CCOCC2)c1 [Example 75, 3-(difluoromethyl)-N-(4-methyl-3-(2-morpholinopyridin-4-yl)phenyl)benzamide]
0.765 | Cc1ccc(NC(=O)c2cccc(C(F)(F)F)c2)cc1-c1cc(N(C)C)nc(N2CCOCC2)c1 [Example 76, N-(3-(2-(dimethylamino)-6-morpholinopyridin-4-yl)-4-methylphenyl)-3-(trifluoromethyl)benzamide]
0.199 | Cc1ccc(NC(=O)c2cccc(C(F)(F)F)c2)cc1-c1ccnc(N2CCO[C@H](CO)C2)c1 [Example 78, (S)—N-(3-(2-(2-(hydroxymethyl)morpholino)pyridin-4-yl)-4-methylphenyl)-3-(trifluoromethyl)benzamide]
28 | Cc1ccc(NC(=O)c2ccnc(C(C)(C)C#N)c2)cc1-c1ccnc(N2C[C@@H](CN(C)C)OC[C@H]2C)c1 [Example 79, 2-(2-cyanopropan-2-yl)-N-(3-(2-((2R,5R)-2-((dimethylamino)methyl)-5-methylmorpholino)pyridin-4-yl)-4-methylphenyl)isonicotinamide]
10.1 | Cc1ccc(NC(=O)c2ccnc(C(C)(C)C#N)c2)cc1-c1ccnc(N2C[C@H](CN(C)C)OC[C@@H]2C)c1 [Example 80, 2-(2-cyanopropan-2-yl)-N-(3-(2-((2S,5S)-2-((dimethylamino)methyl)-5-methylmorpholino)pyridin-4-yl)-4-methylphenyl)isonicotinamide]
1.45 | Cc1ncc(NC(=O)c2cncc(N(C)C)c2)cc1-c1ccnc(N2CCOCC2)c1 [Example 81, 5-(dimethylamino)-N-(2-methyl-2′-morpholino-[3,4′-bipyridin]-5-yl)nicotinamide]

From US9242969B2, “Biaryl amide compounds as kinase inhibitors” (Novartis AG, priority 2013, dated 2016)
